Experiments:
[1] = tested on: mouse B6 class I antigens (D^b or K^b molecules on RMA-S cells); assay: Peptide binding to C57Bl/6 murine MHC on RMA-S cells, flow cytometry (Tables 48, 49); assay type: cell-based
Method: Peptide binding to C57Bl/6 murine MHC was confirmed using the leukemia cell line RMA-S, (Ljunggren et al., 1990). In brief, RMA-S cells were cultured for 7 hrs at 26° C. in complete medium supplemented with 1% FCS. A total of […] RMA-S cells were added into each well of a 24-well plate and incubated either alone or with the designated peptide (25 μg/ml) for 16 hrs at 26° C. and additional 3 hrs at 37° C. in complete medium. Cells were then washed three times and stained with fluorescein isothiocyanate-conjugated anti Db or anti-Kb antibody (PharMingen, San Diego, CA). Labeled cells were washed twice, resuspended and fixed in 500 μl of PBS with 1% paraformaldehyde and analyzed for fluorescence intensity in a flow cytometer (Becton-Dickinson FACSCalibur®). The percentage of increase of D^b or K^b molecules on the surface of the RMA-S cells was measured by increased mean fluorescent intensity of cells incubated with peptide compared with that of cells incubated in medium alone.

[2] = tested on: targets incubated with WT1 peptides (EL-4); assay: CTL chromium release assay, peptide-incubated targets; assay type: cell-based, mouse
Method: (§1) Mice were immunized with the peptides capable of binding to murine class I MHC. Following immunization, spleen cells were stimulated in vitro and tested for the ability to lyse targets incubated with WT1 peptides. CTL were evaluated with a standard chromium release assay (Chen et al., 1994). […] target cells were incubated at 37° C. with 150 μCi of sodium ^51Cr for 90 min., in the presence or absence of specific peptides. Cells were washed three times and resuspended in RPMI with 5% fetal bovine serum. For the assay, 10^4 51Cr-labeled target cells were incubated with different concentrations of effector cells in a final volume of 200 μl in U-bottomed 96-well plates. Supernatants were removed after 4-7 hrs at 37° C., and the percentage specific lysis was determined by the formula:
(§2) % Specific lysis=100×(experimental release−spontaneous release)/(maximum release-spontaneous release).
(§3) P117-139, a peptide with motifs appropriate for binding to class I and class II MHC, was identified as described above using TSITES and BIMAS HLA peptide binding prediction analyses. Mice were immunized as described in Example 3. Following immunization, spleen cells were stimulated in vitro and tested for the ability to lyse targets incubated with WT1 peptides, as well as WT1 positive and negative tumor cells. CTL were evaluated with a standard chromium release assay. […]

[3] = tested on: WT1 positive tumor cell lines (TRAMP-C, BLK-SV40); assay: CTL chromium release assay, WT1 positive tumor cell lines; assay type: cell-based, mouse
Method: as §1, §2, §3

Q: For RMFPNAPYL [SEQ ID NO:185], which “Binding Affinity to Mouse MHC Class I” value ([1]; 9-mer peptides within p117-139, mouse B6 class I antigens, Table 49) is on record?
A: 79%

Q: And the “binding to H-2b class I molecules / class I MHC molecules” value ([1]; peptide 25 μg/ml)?
A: shown to bind to H-2b class I molecules

Q: What about the “Binding Affinity to Mouse MHC Class I” value ([1]; peptide 25 μg/ml, percentage of increase of Db or Kb molecules (mean fluorescent intensity) vs medium alone, Table 48) of the same sequence?
A: 0.9%

Q: What about the “lysis of targets incubated with 9-mer peptide by CTL generated by immunization with p117-139” value ([2]; FIG. 10A) of the same sequence?
A: lysed

Q: What about the “lysis of targets incubated with the relevant peptide by peptide specific CTL” value ([2]; chromium release assay) of the same sequence?
A: demonstrated peptide specific lysis

Q: What about the “lysis of WT1 positive tumor cells by peptide specific CTL” value [3] of the same sequence?
A: only p130-138 specific CTL showed lysis of a WT1 positive tumor cell line

Reference: US20030082194A1, “Compositions and methods for diagnosis and therapy of malignant mesothelioma” (priority 2000, published 2003)
